The results in this text go back to patent US9174984B2, “Chemical compounds” (GlaxoSmithKline Intellectual Property (No. 2) Limited, priority 2011, dated 2015).

Chains of the proteins cited; added tags and fusions are not shown. Lines headed by an entry give the natural chain unless they say otherwise; changes in a name come on top.
UniProt P26358: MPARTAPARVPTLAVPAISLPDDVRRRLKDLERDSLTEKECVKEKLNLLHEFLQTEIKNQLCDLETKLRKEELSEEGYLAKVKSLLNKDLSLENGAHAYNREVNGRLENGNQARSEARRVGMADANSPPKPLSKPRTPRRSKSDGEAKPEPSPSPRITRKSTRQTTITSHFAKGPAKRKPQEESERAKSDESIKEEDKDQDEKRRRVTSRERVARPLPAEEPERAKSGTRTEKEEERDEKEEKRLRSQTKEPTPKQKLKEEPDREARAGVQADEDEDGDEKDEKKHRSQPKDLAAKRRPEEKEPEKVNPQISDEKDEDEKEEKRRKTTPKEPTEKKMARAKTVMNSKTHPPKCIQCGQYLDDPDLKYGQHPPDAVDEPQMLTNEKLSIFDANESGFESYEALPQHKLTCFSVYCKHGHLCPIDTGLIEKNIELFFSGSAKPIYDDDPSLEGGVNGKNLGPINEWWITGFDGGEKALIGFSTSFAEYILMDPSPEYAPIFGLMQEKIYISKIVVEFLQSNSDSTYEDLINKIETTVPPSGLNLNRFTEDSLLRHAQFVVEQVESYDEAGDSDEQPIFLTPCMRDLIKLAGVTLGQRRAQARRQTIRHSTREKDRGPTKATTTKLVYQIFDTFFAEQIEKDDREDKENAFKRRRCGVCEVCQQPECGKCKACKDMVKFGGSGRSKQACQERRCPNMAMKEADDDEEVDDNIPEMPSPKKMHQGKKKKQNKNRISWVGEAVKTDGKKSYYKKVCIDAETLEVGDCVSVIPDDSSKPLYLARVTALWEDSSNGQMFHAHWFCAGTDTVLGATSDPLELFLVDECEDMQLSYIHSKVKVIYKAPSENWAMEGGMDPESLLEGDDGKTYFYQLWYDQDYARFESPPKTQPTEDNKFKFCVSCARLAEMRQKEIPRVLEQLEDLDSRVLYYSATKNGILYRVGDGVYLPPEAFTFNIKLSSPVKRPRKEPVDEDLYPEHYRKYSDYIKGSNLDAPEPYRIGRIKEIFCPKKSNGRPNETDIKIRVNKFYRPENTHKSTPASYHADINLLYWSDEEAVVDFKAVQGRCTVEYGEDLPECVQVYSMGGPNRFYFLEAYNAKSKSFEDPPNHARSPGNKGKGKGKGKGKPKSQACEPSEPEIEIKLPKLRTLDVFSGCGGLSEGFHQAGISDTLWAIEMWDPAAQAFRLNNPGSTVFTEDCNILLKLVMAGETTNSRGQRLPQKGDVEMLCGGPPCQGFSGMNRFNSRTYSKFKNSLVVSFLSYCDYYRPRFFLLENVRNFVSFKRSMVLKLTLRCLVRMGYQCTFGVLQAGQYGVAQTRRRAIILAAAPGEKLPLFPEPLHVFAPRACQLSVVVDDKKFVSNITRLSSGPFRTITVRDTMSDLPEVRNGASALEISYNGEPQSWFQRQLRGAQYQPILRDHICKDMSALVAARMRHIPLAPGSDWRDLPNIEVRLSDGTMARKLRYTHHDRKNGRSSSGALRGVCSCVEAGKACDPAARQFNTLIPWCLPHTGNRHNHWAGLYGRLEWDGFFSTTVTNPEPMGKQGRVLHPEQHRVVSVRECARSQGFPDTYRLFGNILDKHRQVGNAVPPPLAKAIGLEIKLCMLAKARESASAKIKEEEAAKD

In this assay the target is T1, Human full-length DNMT1 (Homo sapiens, UniProt P26358).
T1 construct: Human full-length DNMT1 enzyme purchased from BPS Biosciences; purchased BPS Biosciences
The assay is described as follows: DNMT inhibition assay (3H-SAM filter-binding) against DNMT1. It is filed as biochemical. Conditions: read-out: IC50 against DNMT 1.

Each structure is given as a SMILES string.

Consider `C#CC(=O)Nc1cccc(CNC(=S)NCc2ccnc3[nH]ccc23)c1` [Example 6, N-(3-((3-((1H-Pyrrolo[2,3-b]pyridin-4-yl)methyl)thioureido)methyl)phenyl)propiolamide], for which the IC50 lay within 19.1 to 300 µM.

Broadly, the IC50 is the concentration that gives 50% inhibition.
